Patent US10633417B2 (priority 2013, dated 2020)

Protein sequences, listed by entry. Tags and fused reporters are not part of them. Residues count along the entry.
UniProt P43144, 26-479 limits assumed: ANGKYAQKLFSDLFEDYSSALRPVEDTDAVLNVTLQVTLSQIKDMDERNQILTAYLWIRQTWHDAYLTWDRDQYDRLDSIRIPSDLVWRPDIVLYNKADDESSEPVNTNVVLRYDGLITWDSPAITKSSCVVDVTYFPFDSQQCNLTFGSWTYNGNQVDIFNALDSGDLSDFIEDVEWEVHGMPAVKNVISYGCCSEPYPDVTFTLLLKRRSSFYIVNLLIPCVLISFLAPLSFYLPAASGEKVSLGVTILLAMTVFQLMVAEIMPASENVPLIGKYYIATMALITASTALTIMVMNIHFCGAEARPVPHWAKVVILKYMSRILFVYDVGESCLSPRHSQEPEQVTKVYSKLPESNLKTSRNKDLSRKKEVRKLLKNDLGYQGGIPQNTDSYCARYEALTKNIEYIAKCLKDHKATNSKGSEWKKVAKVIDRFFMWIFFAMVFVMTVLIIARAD
UniProt Q9JLB5, 25-447 limits assumed: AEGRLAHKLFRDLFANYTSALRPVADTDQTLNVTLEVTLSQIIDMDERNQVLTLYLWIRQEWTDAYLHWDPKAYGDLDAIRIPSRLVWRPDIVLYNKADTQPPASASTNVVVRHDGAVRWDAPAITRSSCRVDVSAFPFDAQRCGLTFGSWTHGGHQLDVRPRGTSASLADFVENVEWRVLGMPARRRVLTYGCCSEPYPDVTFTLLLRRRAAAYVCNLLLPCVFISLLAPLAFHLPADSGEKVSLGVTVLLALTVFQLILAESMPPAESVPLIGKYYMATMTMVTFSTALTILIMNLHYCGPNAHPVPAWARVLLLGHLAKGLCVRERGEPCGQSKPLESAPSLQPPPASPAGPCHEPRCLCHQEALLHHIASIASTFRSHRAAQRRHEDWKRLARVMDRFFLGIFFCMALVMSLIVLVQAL
UniProt Q9GZZ6, 25-450 limits assumed: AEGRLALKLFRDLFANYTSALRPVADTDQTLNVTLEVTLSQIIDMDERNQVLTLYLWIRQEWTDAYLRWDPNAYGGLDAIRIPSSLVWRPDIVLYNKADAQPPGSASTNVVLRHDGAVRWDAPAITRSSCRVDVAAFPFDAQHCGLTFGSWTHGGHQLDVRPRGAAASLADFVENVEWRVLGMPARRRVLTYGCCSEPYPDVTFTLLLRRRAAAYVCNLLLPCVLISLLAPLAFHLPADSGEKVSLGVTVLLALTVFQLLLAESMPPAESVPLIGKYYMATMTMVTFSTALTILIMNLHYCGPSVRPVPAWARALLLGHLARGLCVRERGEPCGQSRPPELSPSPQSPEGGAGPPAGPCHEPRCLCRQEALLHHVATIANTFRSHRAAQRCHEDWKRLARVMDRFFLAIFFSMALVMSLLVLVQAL
UniProt Q9UGM1, 26-479 limits assumed: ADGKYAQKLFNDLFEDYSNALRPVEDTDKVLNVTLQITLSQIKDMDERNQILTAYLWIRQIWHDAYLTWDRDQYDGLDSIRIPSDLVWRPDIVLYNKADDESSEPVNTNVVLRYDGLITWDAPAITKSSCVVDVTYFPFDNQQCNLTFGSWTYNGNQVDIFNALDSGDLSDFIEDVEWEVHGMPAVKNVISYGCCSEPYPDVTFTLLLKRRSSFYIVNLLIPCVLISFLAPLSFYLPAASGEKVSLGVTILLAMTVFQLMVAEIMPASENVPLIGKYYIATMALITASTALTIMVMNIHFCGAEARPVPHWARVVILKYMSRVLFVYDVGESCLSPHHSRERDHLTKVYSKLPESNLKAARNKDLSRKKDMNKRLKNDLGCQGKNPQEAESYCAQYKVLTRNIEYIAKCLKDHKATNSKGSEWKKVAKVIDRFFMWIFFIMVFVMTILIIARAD

Legend:
[1] = target: rat α9α10 nAChR (Rattus norvegicus, UniProt P43144+Q9JLB5); assay type: cell-based
[2] = target: human α9α10 nAChR (Homo sapiens, UniProt Q9GZZ6+Q9UGM1); assay type: cell-based

N=C(N)NCCC[C@H](NC(=O)[C@@H]1CSSC[C@@H]2NC(=O)[C@@H](NC(=O)CN)CSSC[C@H](NC(=O)[C@H](CCCNC(=N)N)NC(=O)[C@@H]3CCCN3C(=O)[C@H](CC(=O)O)NC(=O)[C@H](CO)NC2=O)C(=O)N[C@@H](CCCNC(=N)N)C(=O)N[C@@H](Cc2ccc(O)c(I)c2)C(=O)N[C@@H](CCCNC(=N)N)C(=O)N1)C(=O)O [SEQ ID NO:21, GCCSDPRCRX3RCR] was tested, and the “change in potency on the rat receptor” value [1] was “small increase in potency”, the Fold improvement [2] was 4.6 fold and the “fold increase in potency on the human receptor” value [2] was 4-8 fold.
